The values that follow come from patent US20260345484A1, “Inhalable Epinephrine Formulation” (De Motu Cordis Pty Ltd, priority 2022, published 2026).

This data set in a line: Particle size distribution / agglomeration on storage. Type of data set: physicochemical. To be noted: storage to 4 weeks; listed as crystalline micronized epinephrine bitartrate.

SMILES strings stand for the structures. Entries after “also recorded” stand apart in the source; their conditions may differ.

As for `CNC[C@H](O)c1ccc(O)c(O)c1` [micronized epinephrine bitartrate, epinephrine bitartrate], the tendency to agglomerate result is given as “would form agglomerates; also recorded: naturally tends to agglomerate”.
